According to PubChem BioAssay (NCI):
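Following 48 hours of exposure in 96-well plates, responses at five concentrations were used to interpolate endpoints linearly. Abbreviation: GI50, concentration required for 50% inhibition of growth. TGI: concentration producing complete growth inhibition.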

Columns and labels:
Test in all cases: NCI anticancer screen, dose series, 48 h
786-0 renal = tested on: 786-0 renal
A549 NSCLC = tested on: A549 NSCLC
ACHN renal = tested on: ACHN renal
BT-549 breast = tested on: BT-549 breast
CAKI-1 renal = tested on: CAKI-1 renal
CCRF-CEM leukemia = tested on: CCRF-CEM leukemia
COLO 205 colon = tested on: COLO 205 colon
DU-145 prostate = tested on: DU-145 prostate
EKVX NSCLC = tested on: EKVX NSCLC
HCT-116 colon = tested on: HCT-116 colon
HCT-15 colon = tested on: HCT-15 colon
HL-60(TB) leukemia = tested on: HL-60(TB) leukemia
HOP-62 NSCLC = tested on: HOP-62 NSCLC
HOP-92 NSCLC = tested on: HOP-92 NSCLC
HS 578T breast = tested on: HS 578T breast
HT29 colon = tested on: HT29 colon
IGROV1 ovarian = tested on: IGROV1 ovarian
K-562 leukemia = tested on: K-562 leukemia
KM12 colon = tested on: KM12 colon
LOX IMVI melanoma = tested on: LOX IMVI melanoma
M14 melanoma = tested on: M14 melanoma
MALME-3M melanoma = tested on: MALME-3M melanoma
MCF7 breast = tested on: MCF7 breast
MDA-MB-435 = tested on: MDA-MB-435
MDA-N = tested on: MDA-N
MOLT-4 leukemia = tested on: MOLT-4 leukemia
NCI-H226 lung = tested on: NCI-H226 lung
NCI-H23 lung = tested on: NCI-H23 lung

COP(C)(=O)C(N)Cc1ccccc1.O=[N+]([O-])c1cc([N+](=O)[O-])c(O)c([N+](=O)[O-])c1
GI50 (786-0 renal): > 100 µM
TGI (786-0 renal): > 100 µM
GI50 (A549 NSCLC): > 100 µM
TGI (A549 NSCLC): > 100 µM
GI50 (ACHN renal): > 100 µM
TGI (ACHN renal): > 100 µM
GI50 (BT-549 breast): > 100 µM
TGI (BT-549 breast): > 100 µM
GI50 (CAKI-1 renal): > 100 µM
TGI (CAKI-1 renal): > 100 µM
GI50 (CCRF-CEM leukemia): > 100 µM
TGI (CCRF-CEM leukemia): > 100 µM
GI50 (COLO 205 colon): > 100 µM
TGI (COLO 205 colon): > 100 µM
GI50 (DU-145 prostate): > 100 µM
TGI (DU-145 prostate): > 100 µM
GI50 (EKVX NSCLC): > 100 µM
TGI (EKVX NSCLC): > 100 µM
GI50 (HCT-116 colon): > 100 µM
TGI (HCT-116 colon): > 100 µM
GI50 (HCT-15 colon): > 100 µM
TGI (HCT-15 colon): > 100 µM
GI50 (HL-60(TB) leukemia): > 100 µM
TGI (HL-60(TB) leukemia): > 100 µM
GI50 (HOP-62 NSCLC): > 100 µM
TGI (HOP-62 NSCLC): > 100 µM
GI50 (HOP-92 NSCLC): > 100 µM
TGI (HOP-92 NSCLC): > 100 µM
GI50 (HS 578T breast): > 100 µM
TGI (HS 578T breast): > 100 µM
GI50 (HT29 colon): > 100 µM
TGI (HT29 colon): > 100 µM
GI50 (IGROV1 ovarian): > 100 µM
TGI (IGROV1 ovarian): > 100 µM
GI50 (K-562 leukemia): > 100 µM
TGI (K-562 leukemia): > 100 µM
GI50 (KM12 colon): > 100 µM
TGI (KM12 colon): > 100 µM
GI50 (LOX IMVI melanoma): > 100 µM
TGI (LOX IMVI melanoma): > 100 µM
GI50 (M14 melanoma): > 100 µM
TGI (M14 melanoma): > 100 µM
GI50 (MALME-3M melanoma): 70.2 µM
TGI (MALME-3M melanoma): > 100 µM
GI50 (MCF7 breast): > 100 µM
TGI (MCF7 breast): > 100 µM
GI50 (MDA-MB-435): 43.2 µM
TGI (MDA-MB-435): > 100 µM
GI50 (MDA-N): 42 µM
TGI (MDA-N): > 100 µM
GI50 (MOLT-4 leukemia): > 100 µM
TGI (MOLT-4 leukemia): > 100 µM
GI50 (NCI-H226 lung): > 100 µM
TGI (NCI-H226 lung): > 100 µM
GI50 (NCI-H23 lung): > 100 µM
